# In patent US20070037862A1, “Thiazolidinones, their production and use as pharmaceutical agents” (priority 2003, published 2007):
# By UniProt entry, the sequences of proteins in these tests, tags left out.
# UniProt P53350, whole entry: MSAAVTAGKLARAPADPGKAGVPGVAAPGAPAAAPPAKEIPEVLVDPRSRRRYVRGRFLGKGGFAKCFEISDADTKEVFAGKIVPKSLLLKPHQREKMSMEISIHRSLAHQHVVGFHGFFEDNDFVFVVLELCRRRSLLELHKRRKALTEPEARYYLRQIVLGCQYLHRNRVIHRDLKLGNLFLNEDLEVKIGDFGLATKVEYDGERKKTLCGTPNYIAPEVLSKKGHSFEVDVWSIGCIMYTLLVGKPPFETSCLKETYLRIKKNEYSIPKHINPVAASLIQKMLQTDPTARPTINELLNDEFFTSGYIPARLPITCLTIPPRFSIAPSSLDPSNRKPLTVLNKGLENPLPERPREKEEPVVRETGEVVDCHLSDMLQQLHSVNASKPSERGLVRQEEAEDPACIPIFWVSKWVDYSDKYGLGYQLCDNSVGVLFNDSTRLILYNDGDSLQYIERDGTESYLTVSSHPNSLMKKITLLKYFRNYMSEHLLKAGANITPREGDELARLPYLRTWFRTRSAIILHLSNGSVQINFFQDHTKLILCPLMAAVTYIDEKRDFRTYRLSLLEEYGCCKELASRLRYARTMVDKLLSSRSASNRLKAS
# Where two headings read alike, the source gives them in different places.
# Molecular target: T1, Recombinant human Plk-1 (6×His) (Homo sapiens, UniProt P53350)
# T1 construct: 6xHis; made in house; host or cells: baculovirus-infected Hi5 insect cells
# Experiment: PLK enzyme assay
# Format: biochemical
# Method: Recombinant human Plk-1 (6×His) was purified from baculovirus-infected insect cells (Hi5).
# 10 ng of (produced in a recombinant manner and purified) PLK enzyme is incubated for 90 minutes at room temperature with biotinylated casein and 33P-γ-ATP as a substrate in a volume of 15 μl in 384-well Greiner small-volume microtiter plates (final concentrations in the buffer: 660 ng/ml of PLK; 0.7 μmol of casein, 0.5 μmol of ATP incl. 400 nCi/ml of 33P-γ-ATP; 10 mmol of MgCl2, 1 mmol of MnCl2; 0.01% NP40; 1 mmol of DTT, protease inhibitors; 0.1 mmol of Na2VO3 in 50 mmol of HEPES, pH 7.5). To complete the reaction, 5 μl of stop solution (500 μmol of ATP; 500 mmol of EDTA; 1% Triton X100; 100 mg/ml of streptavidin-coated SPA beads in PBS) is added. After the microtiter plate is sealed by film, the beads are sedimented by centrifuging (10 minutes, 1500 rpm). The incorporation of 33P-γ-ATP in casein is intended as a measurement of enzyme activity by β-counting.
# Test substances are used in various concentrations (0 μmol, as well as in the range of 0.01-30 ∥mol). The final concentration of the solvent dimethyl sulfoxide is 1.5% in all batches.
"IC50 (Table 3, Esters, read-out: Inhibition of Plk-1 IC50) [nM]",IC50 [nM],Structure (SMILES)
81,–,CCOC(=O)C(C#N)=c1sc(=CNc2ccc(C(C)=O)cc2)c(=O)n1CC (mixture of isomers) [Example 132]
–,41,CCN(CC)CCNC(=O)c1c[nH]c2ccc(NC=c3s/c(=C(/C#N)C(=O)NCC(F)(F)F)n(CC)c3=O)cc12 [Example 330]
–,46,CCOC(=O)C(C#N)=c1sc(=CNc2cccc(C)c2)c(=O)n1CC [Example 7]
